Laboratory results reported in US20060088834A1, “Matrix analysis of gene expression in cells (magec)” (priority 2002, published 2006).

Amino acid sequences for entries named in this document (tags omitted). Residues count along the entry.
UniProt P41594, 21-1212: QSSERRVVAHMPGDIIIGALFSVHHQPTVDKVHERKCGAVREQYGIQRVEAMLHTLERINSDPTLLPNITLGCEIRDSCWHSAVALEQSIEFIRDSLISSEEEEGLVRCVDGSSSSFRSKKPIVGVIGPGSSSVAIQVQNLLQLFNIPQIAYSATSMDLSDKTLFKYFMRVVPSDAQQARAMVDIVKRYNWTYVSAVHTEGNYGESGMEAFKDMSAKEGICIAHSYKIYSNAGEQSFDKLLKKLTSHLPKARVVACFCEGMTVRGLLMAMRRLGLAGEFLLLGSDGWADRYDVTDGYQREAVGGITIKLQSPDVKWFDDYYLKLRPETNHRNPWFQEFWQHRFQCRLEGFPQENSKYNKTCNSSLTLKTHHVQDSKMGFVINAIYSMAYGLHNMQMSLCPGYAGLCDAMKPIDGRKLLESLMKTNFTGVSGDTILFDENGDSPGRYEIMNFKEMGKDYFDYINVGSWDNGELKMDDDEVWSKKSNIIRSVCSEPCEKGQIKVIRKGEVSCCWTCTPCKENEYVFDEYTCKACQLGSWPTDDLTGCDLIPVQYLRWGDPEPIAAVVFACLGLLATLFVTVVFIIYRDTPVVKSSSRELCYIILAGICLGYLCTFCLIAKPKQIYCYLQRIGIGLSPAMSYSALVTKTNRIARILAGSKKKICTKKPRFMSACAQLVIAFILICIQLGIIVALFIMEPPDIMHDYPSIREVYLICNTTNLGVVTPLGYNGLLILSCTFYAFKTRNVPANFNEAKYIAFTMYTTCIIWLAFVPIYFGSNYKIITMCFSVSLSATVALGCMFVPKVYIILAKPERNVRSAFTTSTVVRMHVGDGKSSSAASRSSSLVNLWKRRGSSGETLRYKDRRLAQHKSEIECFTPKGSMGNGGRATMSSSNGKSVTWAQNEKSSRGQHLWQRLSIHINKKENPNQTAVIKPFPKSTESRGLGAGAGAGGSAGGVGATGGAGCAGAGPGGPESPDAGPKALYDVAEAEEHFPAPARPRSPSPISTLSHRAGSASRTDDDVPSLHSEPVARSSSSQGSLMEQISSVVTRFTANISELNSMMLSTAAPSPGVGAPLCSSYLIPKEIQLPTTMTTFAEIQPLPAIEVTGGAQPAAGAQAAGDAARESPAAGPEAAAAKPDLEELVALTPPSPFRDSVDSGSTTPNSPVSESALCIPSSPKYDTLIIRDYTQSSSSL
UniProt P41594, 21-1180 isoform P41594-2 limits assumed: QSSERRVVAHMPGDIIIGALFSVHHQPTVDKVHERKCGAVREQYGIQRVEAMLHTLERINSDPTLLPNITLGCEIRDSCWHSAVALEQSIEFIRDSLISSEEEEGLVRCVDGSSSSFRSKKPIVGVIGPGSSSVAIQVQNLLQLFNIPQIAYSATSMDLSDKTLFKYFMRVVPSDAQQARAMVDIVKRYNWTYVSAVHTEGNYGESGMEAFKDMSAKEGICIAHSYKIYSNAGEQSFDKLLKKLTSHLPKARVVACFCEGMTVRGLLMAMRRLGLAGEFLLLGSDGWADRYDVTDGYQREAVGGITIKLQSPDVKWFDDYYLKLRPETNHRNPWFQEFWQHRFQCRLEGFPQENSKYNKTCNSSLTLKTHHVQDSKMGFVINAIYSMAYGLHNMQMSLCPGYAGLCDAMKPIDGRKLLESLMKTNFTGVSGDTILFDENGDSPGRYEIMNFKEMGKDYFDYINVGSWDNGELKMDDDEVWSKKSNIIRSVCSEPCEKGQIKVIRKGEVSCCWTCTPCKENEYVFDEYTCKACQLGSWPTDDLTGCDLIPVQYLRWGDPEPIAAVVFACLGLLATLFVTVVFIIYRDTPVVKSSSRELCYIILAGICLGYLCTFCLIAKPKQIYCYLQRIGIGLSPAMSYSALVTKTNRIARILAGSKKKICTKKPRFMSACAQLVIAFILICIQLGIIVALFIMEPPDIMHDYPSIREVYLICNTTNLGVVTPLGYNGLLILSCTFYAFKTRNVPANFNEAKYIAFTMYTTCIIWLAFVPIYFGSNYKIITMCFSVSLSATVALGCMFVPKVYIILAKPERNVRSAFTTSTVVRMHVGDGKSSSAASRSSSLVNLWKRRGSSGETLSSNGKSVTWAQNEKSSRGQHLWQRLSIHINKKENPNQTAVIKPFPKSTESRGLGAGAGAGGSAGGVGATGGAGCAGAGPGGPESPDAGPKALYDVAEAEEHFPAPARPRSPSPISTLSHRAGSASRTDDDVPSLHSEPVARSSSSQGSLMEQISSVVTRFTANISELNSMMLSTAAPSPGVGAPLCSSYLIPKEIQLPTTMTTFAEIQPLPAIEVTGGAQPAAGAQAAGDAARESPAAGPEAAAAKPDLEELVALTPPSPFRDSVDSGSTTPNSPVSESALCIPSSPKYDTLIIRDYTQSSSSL

Legend:
mGluR5 = mGluR5 (Homo sapiens, UniProt P41594); assay: traditional membrane binding assay; details: comparison value for the intact cell assays
[1] = biological target: T1, human metabotropic subtype 5 (mGluR5a) (Homo sapiens, UniProt P41594); assay: MAGEC-based intact cell-binding assay (HEK293 cells MAGEC transfected with mGluR5a cDNA); details: displacement of 30 nM 3H-labeled compound L; 96-well plates coated with fibronectin or collagen I, 384-well plate coated with collagen I; no curves on PDL-coated plates
T1 construct: expressed in transfected cells; host or cells: HEK293

IC50 (mGluR5): 30 µM | IC50 values from intact cell binding assays compared with membrane binding assay [1]: very similar
Structure (SMILES): Cc1cccc(C#Cc2ccccc2)n1.Cl [MPEP, 2-Methyl-6-(phenylethynyl)pyridine hydrochloride]
